Reference: patent EP4635500A1, “THERAPEUTIC AGENT FOR BACTERIAL INFECTION” (Sumitomo Pharma Co., Ltd., priority 2022, dated 2024)

Experiments:
[1] = Population PK analysis of Phase I data, 2-compartment model (Example 33, Table 43); parameters: species or system human
[2] = Preliminary population PK analysis of Phase I data, 2-compartment model (Example 28, Table 38); parameters: species or system human; conditions: interindividual variability
[3] = Plasma PK of Compound A after single intravenous dose (Example 21, Table 37); type: in vivo, dog; conditions: Dogs (n = 2); 1 mg/kg intravenous single dose
[4] = Phase 1 study pharmacokinetics, 3-hour intravenous infusion (Example 31, Tables 39-42); type: in vivo, human; conditions: average (standard deviation)
[5] = Plasma PK of Compound A after single intravenous dose (Example 21, Table 37); type: in vivo, rat; conditions: Rats (n = 3); 5 mg/kg intravenous single dose
[6] = PK prediction in a clinical setting by allometric scaling (Example 23); parameters: species or system human; conditions: allometric scaling from rat, dog, monkey
[7] = Phase 1 study safety and tolerability (Example 32); type: in vivo, human
[8] = Plasma PK of Compound A after single intravenous dose (Example 21, Table 37); type: in vivo, monkey; conditions: Monkeys (n = 2); 1 mg/kg intravenous single dose
[9] = population PK, 2-compartment model

With `N[C@@H](C(=O)N1CC(Oc2ccc3c(c2C(=O)O)OB(O)CC3)C1)c1c[nH]cn1` the “θSex on Vc, Estimated value (95% confidence interval)” value ([1]; 0 for male) was -0.114 (-0.192, -0.0434) ;, the “θBW on CL, Estimated value (95% confidence interval)” value ([1]; covariate exponent, BW/75.2) was 0.561 (0.299, 0.810) and the “θBW on Q, Estimated value (95% confidence interval)” value ([1]; covariate exponent, BW/75.2) was 1.37 (0.948, 1.69). For the same compound, the “θBW on Vc, Estimated value (95% confidence interval)” value ([1]; covariate exponent, BW/75.2) was 0.455 (0.270, 0.658), the “θBW on Vp, Estimated value (95% confidence interval)” value ([1]; covariate exponent, BW/75.2) was 1.37 (0.948, 1.69) and the “ωCL^2, Coefficient of variation” value ([1]; interindividual variability) was 18.1%. For the same compound, the “ωCL^2, Estimated value (95% confidence interval)” value ([1]; interindividual variability) was 0.0323 (0.0223, 0.0391), the “ωVc^2, Coefficient of variation” value ([1]; interindividual variability) was 14.6% and the “ωVp^2, Coefficient of variation” value ([1]; interindividual variability) was 52.1%. For the same compound, the “σ^2, Coefficient of variation” value ([1]; intraindividual variability) was 9.13%, the “σ^2, Estimated value (95% confidence interval)” value ([1]; intraindividual variability) was 0.00831 (0.00676, 0.0111) and the “Q θQ, Estimated value (95% confidence interval)” value [1, 9] was 1.08 (0.953, 1.17) L/h. For the same compound, the “Vc θVc, Estimated value (95% confidence interval)” value [1, 9] was 11.0 (10.6, 11.6) L, the “Vp θVp, Estimated value (95% confidence interval)” value [1, 9] was 4.12 (3.70, 4.61) L and the “IIV CL, Coefficient of variation % (Shrinkage %)” value [2] was 22.6(0.0395) %. The “IIV Q, Coefficient of variation % (Shrinkage %)” value [2] was 37.0(19.6) %, the “AUC0-∞” value [3] was 6590 ng·h/mL and the CL [3] was 2.55 mL/min/kg. For the same compound, the AUC0-tau ([4]; 500 mg every 8 hours in combination with 2 g/dose of meropenem, day 5) was 143 (61.5) µg·h/mL, the AUC0-tau ([4]; 500 mg every 8 hours, day 5 of repeated administration) was 99.2 (14. 9) µg·h/mL and the AUC0-tau ([4]; 1000 mg every 8 hours, day 5 of repeated administration) was 243 (53.7) µg·h/mL. The AUC0-tau ([4]; 1500 mg every 8 hours in combination with 2 g/dose of meropenem, day 5) was 547 (87.5) µg·h/mL, the AUC0-tau ([4]; 1500 mg every 8 hours, day 5 of repeated administration) was 463 (96.0) µg·h/mL and the T1/2 ([4]; Japanese, single dose 250 mg) was 2.77(0.659) 1/h. For the same compound, the T1/2 ([4]; Japanese, single dose 750 mg) was 3.40(0.291) 1/h, the T1/2 ([4]; Japanese, single dose 1500 mg) was 4.27(0.82) 1/h and the T1/2 ([4]; single dose 50 mg) was 2.66 (0.361) 1/h. The T1/2 ([4]; single dose 125 mg) was 3.51 (0.989) 1/h, the T1/2 ([4]; single dose 250 mg) was 3.87 (0.268) 1/h and the T1/2 ([4]; single dose 750 mg) was 3.49 (0.303) 1/h. The T1/2 ([4]; single dose 1500 mg) was 4.05 (0.918) 1/h, the T1/2 ([4]; single dose 2000 mg) was 4.83 (1.13) 1/h and the CL [5] was 6.4 ± 1.7 mL/min/kg. The Vss [5] was 0.380 ± 0.011 L/kg, the “CL (predicted)” value [6] was 0.620 mL/min/kg and the “Vss (predicted)” value [6] was 0.116 L/kg. For the same compound, the safety and tolerability ([7]; 50 mg to 1500 mg, intravenous infusion for 3 hours every 8 hours for 5 days) was “safe and tolerated”, the safety and tolerability ([7]; 50 mg to 2000 mg, intravenous infusion for 3 hours) was “safe and tolerated” and the “AUC0-∞” value [8] was 7190 ng·h/mL. The C0 [8] was 11400 ng/mL and the Vss [8] was 0.193 L/kg.
